The text below walks through data of patent publication US20110104103A1, “Method of conjugating therapeutic compounds to cell targeting devices via metal complexes” (KREATECH BIOTECHNOLOGY B.V., priority 2005, published 2011).

One data set deals with HUVEC. The note with it: 48 h, 100 ng/ml.

In the case of TRAIL, in the data set on Jurkat leukemic T-cells, the “cytotoxic activity (cell viability 48 h, caspases 4 h)” value is “capable of killing tumour cells”. Also, the HUVEC cell viability result in the data set on HUVEC is recorded as “not affected”.
